In ChEMBL document CHEMBL4765307, “Design, synthesis and biological activity of novel 2,3,4,5-tetra-substituted thiophene derivatives as PI3Kα inhibitors with potent antitumor activity” (Eur J Med Chem, 2020):

Legend:
Homo sapiens [1] = species on record: Homo sapiens; assay: (§1) Selectivity index, ratio of IC50 for N-terminal His6-tagged human recombinant full length PI3Kbeta co-expressed with human recombinant full length P85alpha in baculovirus infected Sf21 cells to IC50 for His-tagged human full length PI3Kalpha coexpressed with p85 alpha in baculovirus expression system
Homo sapiens [2] = species on record: Homo sapiens; assay: Selectivity index, ratio of IC50 for GST-tagged human recombinant PI3Kgamma catalytic domain (468 to 1203 residues) expressed in insect cells to IC50 for His-tagged human full length PI3Kalpha coexpressed with p85 alpha in baculovirus expression system
Homo sapiens [3] = species on record: Homo sapiens; assay: as §1, with “PI3Kdelta” for “PI3Kbeta”
Homo sapiens [4] = species on record: Homo sapiens; assay: Selectivity index, ratio of IC50 for N-terminal FLAG-tagged human recombinant mTOR (1362 to end residues) to IC50 for His-tagged human full length PI3Kalpha coexpressed with p85 alpha in baculovirus expression system

## N#Cc1c(N2CCOCC2)sc(-c2nc[nH]n2)c1-c1ccc(NC(=O)Nc2ccccc2Cl)cc1
Homo sapiens [1]
  Ratio IC50: 12
Homo sapiens [2]
  Ratio IC50: 28
Homo sapiens [3]
  Ratio IC50: 30
Homo sapiens [4]
  Ratio IC50: 196
